Values quoted from earlier work, collected in patent US10758484B2, “CED of SN-38-loaded micelles against brain tumor” (Nippon Kayaku Co., Ltd., priority 2014, dated 2020).

Conditions: cited from earlier work

7-ethyl-10-hydroxy-camptothecine [SN-38]
water solubility: water-insoluble
